Values of other authors in patent US20220202845A1, “METHODS AND COMPOSITIONS FOR TREATING CANCER” (Fred Hutchinson Cancer Research Center, priority 2018, published 2022).

Sequences of proteins named here, by UniProt entry; tags and fusion partners are left off.
UniProt Q16539, whole entry: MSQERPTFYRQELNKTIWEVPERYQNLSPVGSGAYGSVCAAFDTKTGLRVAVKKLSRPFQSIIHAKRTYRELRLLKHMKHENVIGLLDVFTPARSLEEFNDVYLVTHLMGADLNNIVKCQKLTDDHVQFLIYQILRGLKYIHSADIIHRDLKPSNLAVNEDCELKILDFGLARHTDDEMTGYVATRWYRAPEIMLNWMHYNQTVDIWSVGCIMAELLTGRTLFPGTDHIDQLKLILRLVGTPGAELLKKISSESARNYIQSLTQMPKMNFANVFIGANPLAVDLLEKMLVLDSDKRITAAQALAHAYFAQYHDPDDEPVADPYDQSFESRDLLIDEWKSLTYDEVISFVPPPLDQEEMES

Biological target: p38α (Homo sapiens, UniProt Q16539)
Conditions: fold selective over p38β; cited from earlier work

## Cn1c(=O)c(Oc2ccc(F)cc2F)cc2cnc(NC(CCO)CCO)nc21 [Pamapimod]
  Selectivity for p38α over p38β: p38α34X selective over p38β
